Results reported in ChEMBL document CHEMBL3044855, “In vitro reactivation of organophosphorus (OP)-inhibited electric eel acetylcholinesterase by novel monoquaternary pyridinium oximes” (2013).
The source made the active and inactive calls. No cut-off for these calls is given here.

The chains behind the UniProt entries cited, without tags or fusion partners. Where a name states a change or a piece, a line headed by the entry shows the natural chain unless it says otherwise.
UniProt O42275: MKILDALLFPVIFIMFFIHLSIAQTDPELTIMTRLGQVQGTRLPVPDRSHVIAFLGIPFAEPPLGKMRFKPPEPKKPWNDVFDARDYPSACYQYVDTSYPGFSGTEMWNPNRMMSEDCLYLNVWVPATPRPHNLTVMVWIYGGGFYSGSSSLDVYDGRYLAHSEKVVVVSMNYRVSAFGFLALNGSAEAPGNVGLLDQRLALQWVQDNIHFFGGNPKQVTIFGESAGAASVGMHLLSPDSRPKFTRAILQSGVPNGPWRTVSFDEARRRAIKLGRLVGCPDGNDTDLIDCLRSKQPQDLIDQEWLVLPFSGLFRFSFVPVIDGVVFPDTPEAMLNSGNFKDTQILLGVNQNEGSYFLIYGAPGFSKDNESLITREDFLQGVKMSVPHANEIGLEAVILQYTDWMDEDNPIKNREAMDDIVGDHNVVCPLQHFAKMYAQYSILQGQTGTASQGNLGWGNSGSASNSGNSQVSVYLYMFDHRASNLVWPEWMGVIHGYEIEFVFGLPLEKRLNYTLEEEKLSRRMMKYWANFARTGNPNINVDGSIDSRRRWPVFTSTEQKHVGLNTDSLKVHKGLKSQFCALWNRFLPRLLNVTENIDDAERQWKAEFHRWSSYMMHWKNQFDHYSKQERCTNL

Tests used:
Parameters in all cases: scale not given: the % may be the effect or the level left
[1] = target: Acetylcholinesterase (Electrophorus electricus) (UniProt O42275); test: Reactivation of VX-inhibited Electrophorus electricus (electric eel) acetylcholinesterase using acetylthiocholine iodide as substrate at 1 mM incubated at 15 min post VX-inhibition for 10 min by Ellman method
[2] = target: Acetylcholinesterase (Electrophorus electricus) (UniProt O42275); test: Reactivation of DFP-inhibited Electrophorus electricus (electric eel) acetylcholinesterase using acetylthiocholine iodide as substrate at 1 mM incubated at 15 min post DFP-inhibition for 10 min by Ellman method
[3] = target: Acetylcholinesterase (Electrophorus electricus) (UniProt O42275); test: Reactivation of VX-inhibited Electrophorus electricus (electric eel) acetylcholinesterase using acetylthiocholine iodide as substrate at 1 mM incubated at 15 min post VX-inhibition measured after 40 min by Ellman method
[4] = target: Acetylcholinesterase (Electrophorus electricus) (UniProt O42275); test: Reactivation of sarin-inhibited Electrophorus electricus (electric eel) acetylcholinesterase using acetylthiocholine iodide as substrate at 1 mM incubated at 15 min post sarin-inhibition for 10 min by Ellman method

| Structure (SMILES) | Activity [3] | also measured |
| --- | --- | --- |
| O/N=C/c1ccc[n+](COCc2ccccc2)c1 | Active | Activity [1]: Active; Activity [2]: Active |
| CCCCCCCCCCCOC[n+]1ccc(/C=N/O)cc1 | Active | – |
| CCCCCCCCCCCOC[n+]1cccc(/C=N/O)c1 | Active | – |
| CCCCCCCOC[n+]1ccc(/C=N/O)cc1 | Active | – |
| O/N=C/c1cc[n+](COCc2ccccc2)cc1 | 59% | Activity [1]: 54%; Activity [2]: 52%; Activity [4]: 26% |
| CCCCCCCCOC[n+]1cccc(/C=N/O)c1 | Active | – |
| Cc1ccc(COC[n+]2cccc(/C=N/O)c2)cc1 | Active | – |
| Cc1ccc(COC[n+]2ccc(/C=N/O)cc2)cc1 | Active | Activity [1]: 41%; Activity [2]: 42% |
| CCCCCCCCCCOC[n+]1ccc(/C=N/O)cc1 | Active | – |
| CCCCCCCCCCCCOC[n+]1ccc(/C=N/O)cc1 | Active | – |
| CCCCCCOC[n+]1cccc(/C=N/O)c1 | Active | – |
| CCCCCCCCCCOC[n+]1cccc(/C=N/O)c1 | Active | – |
| CCCCCCCCOC[n+]1ccc(/C=N/O)cc1 | Active | – |
| CCCCCCCCCOC[n+]1cccc(/C=N/O)c1 | Active | – |
| CCCCCCCCCCCCOC[n+]1cccc(/C=N/O)c1 | Active | – |
| CCCCCCCOC[n+]1cccc(/C=N/O)c1 | Active | – |
| CCCCCCOC[n+]1ccc(/C=N/O)cc1 | Active | – |
| CCCCCCCCCOC[n+]1ccc(/C=N/O)cc1 | Active | – |
